From ChEMBL document CHEMBL1151699, “Synthesis and biological evaluation of guanylhydrazone coactivator binding inhibitors for the estrogen receptor” (Bioorg Med Chem, 2008)

Molecular target: Envelope glycoprotein gp160 (Human immunodeficiency virus type 1 group M subtype B (isolateBRU/LAI) (HIV-1)) (UniProt P03377)
Assay: Displacement of [3H]estradiol from human estrogen receptor alpha/estrogen receptor beta relative to estradiol

N=C(N)N/N=C/C1=C(Cl)c2ccccc2CC1 was tested, and the RBA was 0.004%.
